Among the data in patent publication US8669361B2, “Pyrazol-4-yl-heterocyclyl-carboxamide compounds and methods of use” (Genentech, Inc., priority 2010, dated 2014) are Ki values, retold here.

Chains of the proteins cited; added tags and fusions are not shown. Lines headed by an entry give the natural chain unless they say otherwise; changes in a name come on top.
UniProt Q9P1W9: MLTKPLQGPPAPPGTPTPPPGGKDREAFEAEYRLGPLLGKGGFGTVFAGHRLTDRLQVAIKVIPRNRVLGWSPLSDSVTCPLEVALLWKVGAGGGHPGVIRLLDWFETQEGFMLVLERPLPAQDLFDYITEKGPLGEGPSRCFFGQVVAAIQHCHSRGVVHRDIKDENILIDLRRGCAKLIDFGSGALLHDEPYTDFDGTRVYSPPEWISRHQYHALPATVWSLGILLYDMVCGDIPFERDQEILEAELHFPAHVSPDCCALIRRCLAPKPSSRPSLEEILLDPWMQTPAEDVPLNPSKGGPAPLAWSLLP
UniProt P11309, whole entry: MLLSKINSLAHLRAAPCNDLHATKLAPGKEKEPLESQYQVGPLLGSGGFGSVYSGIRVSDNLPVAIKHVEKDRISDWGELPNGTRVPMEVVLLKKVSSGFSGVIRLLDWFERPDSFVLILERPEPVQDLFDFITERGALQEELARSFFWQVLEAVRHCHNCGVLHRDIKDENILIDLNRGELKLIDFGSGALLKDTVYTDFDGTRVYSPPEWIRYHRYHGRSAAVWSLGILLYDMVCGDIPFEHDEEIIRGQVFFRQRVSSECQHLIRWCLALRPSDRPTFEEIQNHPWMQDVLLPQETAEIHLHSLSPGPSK

Experiment [1] deals with PIM2 (Homo sapiens (Human), UniProt Q9P1W9). The experiment can be described thus: Pim kinase binding activity, Caliper LC3000 microfluidic peptide phosphorylation assay (Example 901). In kind it is biochemical. Particulars: 50 pM PIM2, 1 μM FAM-peptide, 10 μM ATP, 90 minutes at room temperature; read-out: PIM2 LC3K (KI). The procedure: (§1) A fluorescent-labeled Pim-specific peptide substrate, was custom synthesized by American Peptide Company (Sunnyvale, Calif.). Reaction Buffer contained 10 mM HEPES, pH 7.2, 10 mM MgCl2, 0.01% Tween 20, 2 mM DTT. Termination Buffer contained 190 mM HEPES, pH 7.2, 0.015% Brij-35, 0.2% Coating Reagent 3 (Caliper Life Sciences, Hopkinton, Mass.), 20 mM EDTA. Separation Buffer contained 100 mM HEPES, pH 7.2, 0.015% Brij-35, 0.1% Coating Reagent 3, 1:200 Coating Reagent 8 (Caliper Life Sciences, Hopkinton, Mass.), 10 mM EDTA and 5% DMSO.
PIM reactions were carried out in a final volume of 10 μL per well in a 384-well plate. […] After 90 minutes of incubation at room temperature, the phosphorylation reaction was stopped by the addition of 10 μL Termination Buffer. The product and substrate in each independent reaction were separated on a 12-sipper microfluidic chip (Caliper Life Sciences, Hopkinton, Mass.) run on a Caliper LC3000® (Caliper Life Sciences, Hopkinton, Mass.). The separation of product and substrate was optimized by choosing voltages and pressure using Caliper's Optimizer software (Hopkinton, Mass.). […] Substrate conversion was calculated from the electropherogram using HTS Well Analyzer software (Caliper Life Sciences, Hopkinton, Mass.). Ki values for the test compound were calculated.

For experiment [2], the target named is PIM1 (Homo sapiens (Human), UniProt P11309). The experiment is described as above. It counts as biochemical. Particulars: 20 pM PIM1, 1 μM FAM-peptide, 10 μM ATP, 90 minutes at room temperature; read-out: PIM1 LC3K (KI). The protocol:
as §1, with “PIM-1, -2, and -3 enzymes were generated as fusion proteins expressed in bacteria and purified by IMAC column chromatography (Sun, X., Chiu, J. F., and He, Q. Y. (2005) Expert Rev. Proteomics, 2:649-657). A fluorescent-labeled” for “A fluorescent-labeled”
PIM reactions were carried out in a final volume of 10 μL per well in a 384-well plate. A standard enzymatic reaction, initiated by the addition of 5 μL 2×ATP and test compound to 5 μL of 2× enzyme and FAM-peptide, contained 20 pM PIM1, 50 pM PIM2, or 55 pM PIM3, 1 μM FAM-peptide, and 10 μM ATP, in Reaction Buffer. […] The product and substrate fluorophore were excited at 488 nm and detected at 530 nm. Substrate conversion was calculated from the electropherogram using HTS Well Analyzer software (Caliper Life Sciences, Hopkinton, Mass.). Ki values for the test compound were calculated.

In the case of `Cn1ncc(NC(=O)c2nc(-c3c(F)cccc3F)sc2N)c1OC1CCNCC1` [Example 120, 5-amino-2-(2,6-difluorophenyl)-N-(1-methyl-5-(piperidin-4-yloxy)-1H-pyrazol-4-yl)thiazole-4-carboxamide], the Ki – broadly, the equilibrium dissociation constant of an inhibitor or competing ligand from its target – in experiment [1] was determined as 28.3 nM.

Take `Cn1ncc(NC(=O)c2nc(-c3ccccc3F)cnc2N)c1N1CCC[C@H](N)C1` [Example 119, (S)-3-amino-N-(5-(3-aminopiperidin-1-yl)-1-methyl-1H-pyrazol-4-yl)-6-(2-fluorophenyl)pyrazine-2-carboxamide]: in experiment [2], the Ki was 0.274 nM.

On to `Cn1ncc(NC(=O)c2nc(-c3ccccc3F)ccc2N)c1N1CC[C@@H](N)C1` [Example 124, (R)-3-amino-N-(5-(3-aminopyrrolidin-1-yl)-1-methyl-1H-pyrazol-4-yl)-6-(2-fluorophenyl)picolinamide], for which, in experiment [2], the Ki came to 1.92 nM.
